# scFv variants of Ab-14 (light chain) against a SARS-CoV-2 spike peptide

Values reported by Engelhart et al. 2022, doi:10.1038/s41597-022-01779-4 (FLAb copy).

Target peptide (SARS-CoV-2 spike, HR2 region): PDVDLGDISGINAS

Parent: Ab-14, a human scFv built as VH, the linker GGGGSGGGGSGGGGS, VL. Only the CDRs of the light chain vary.
VH: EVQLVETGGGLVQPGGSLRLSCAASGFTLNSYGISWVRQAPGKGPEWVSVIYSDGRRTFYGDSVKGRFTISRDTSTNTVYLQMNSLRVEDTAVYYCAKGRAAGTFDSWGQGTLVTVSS
VL: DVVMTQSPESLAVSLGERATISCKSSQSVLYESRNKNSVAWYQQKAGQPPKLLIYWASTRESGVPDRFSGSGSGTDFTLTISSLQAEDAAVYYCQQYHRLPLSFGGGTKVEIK

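The starting antibody came from a phage panning campaign against this peptide. AAYL50 was designed without a model: most single CDR substitutions and a random sample of double and triple ones. In AlphaSeq, yeast of one mating type display the scFv and yeast of the other type display the target. After mating in shaken culture at 30 °C for 16 h, diploids were selected and their barcode pairs sequenced. A regression on co-assayed BCL2-family reference pairs converts the normalised counts of each replicate to an apparent Kd. Each pool was mated in three replicate cultures.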

Changes read parent residue, position, new residue, counted from the first residue of the VL shown.
All variants listed here change L102 of the VL, counted from its first residue.
Values are log10 of the apparent Kd in nM; lower means stronger binding.
Replicates are averaged; those with no signal do not enter the mean.
A pair that was not seen in that replicate is written "nd"; this usually means weak binding, but a binder can also be missed.
Order: sorted from the lowest average up, undetected variants last.
For reference, the parent read 0.65 as the reference entry and 1.68 as a member of this library.

The variant L30V+E61T+L102C gave 0.72, 0.83, 0.68 (mean 0.74).
The variant R34Y+N37E+L102K gave 0.84, 1.02, 0.85 (mean 0.90).
The variant K36E+Q96W+L102T gave 0.76, 1.25, 0.97 (mean 0.99).
The variant S33P+L100E+L102T gave 1.56, 1.43, 1.70 (mean 1.56).
The variant S28V+Y31M+L102I gave 1.60, 1.28, 1.83 (mean 1.57).
The variant V29I+N37Y+L102M gave 1.64, 1.48, 1.73 (mean 1.62).
The variant Y31S+S33G+L102W gave 1.70, 1.91, 1.78 (mean 1.80).
The variant S33T+L102I gave 1.82, 2.02, 1.83 (mean 1.89).
The variant E32L+Y97W+L102H gave 1.84, 1.96, 2.02 (mean 1.94).
The variant Y31R+L102T gave 2.34, 1.62, 1.99 (mean 1.98).
The variant S28A+P101G+L102Y gave 2.06, 1.48, 2.49 (mean 2.01).
The variant Y31E+Q95L+L102D gave nd, 2.02, nd.
The variant V29W+L102V gave 3.81, 2.49, 3.18 (mean 3.16).
The variant V39I+L102T gave nd, 3.21, 3.15 (mean 3.18).
The variant S25D+K36E+L102A gave 2.75, 2.44, 4.86 (mean 3.35).
The variant E32N+A40Q+L102K gave nd, 3.56, nd.
The variant V39K+L102H gave 4.23, nd, 3.60 (mean 3.91).
The variant N37L+T59N+L102P gave nd, nd, 4.15.
The variant A40V+R60N+L102H gave nd, 4.35, nd.
The variant R34V+S38L+L102Y gave 3.40, nd, 5.36 (mean 4.38).
The variant S38N+Q95R+L102V gave nd, 4.56, nd.
The variant L30G+V39A+L102S gave nd, 4.71, nd.
The variant E32P+Q95R+L102G gave nd, nd, 5.14.
The variant S26I+T59C+L102W gave nd, nd, 5.67.
The variant Q27T+A40C+L102P gave nd, nd, nd.
The variant S28Q+R34D+L102T gave nd, nd, nd.
The variant S28H+E32I+L102R gave nd, nd, nd.
The variant R34A+V39K+L102E gave nd, nd, nd.
The variant E32Q+S33E+L102H gave nd, nd, nd.
The variant S26R+R99Y+L102Y gave nd, nd, nd.
The variant Q27D+P101K+L102A gave nd, nd, nd.
The variant S25H+P101L+L102C gave nd, nd, nd.
The variant W56P+E61S+L102V gave nd, nd, nd.
The variant A40S+R99P+L102C gave nd, nd, nd.
The variant S25N+E61A+L102W gave nd, nd, nd.
The variant N37L+S38R+L102Y gave nd, nd, nd.

The opening 6 entries, copied out:

L30V+E61T+L102C: 0.72, 0.83, 0.68 (mean 0.74).
R34Y+N37E+L102K: 0.84, 1.02, 0.85 (mean 0.90).
K36E+Q96W+L102T: 0.76, 1.25, 0.97 (mean 0.99).
S33P+L100E+L102T: 1.56, 1.43, 1.70 (mean 1.56).
S28V+Y31M+L102I: 1.60, 1.28, 1.83 (mean 1.57).
V29I+N37Y+L102M: 1.64, 1.48, 1.73 (mean 1.62).

Nonspecific signal, from three strains lacking the peptide, appeared in 18% of pairings of library AAYL50, centred on 4.19 (5% of these signals below 2.99); values are not corrected for it.